For experiment [1], the system named is Human lung carcinoma A549 cells. As to conditions: A549 cells exposed to IC50-IC90: VBL 14.3 months, paclitaxel and adriamycin 21.3 months, dEpoB 21.4 months. An excerpt:
Repeated exposure of human lung carcinoma A549 cells to sublethal concentrations of antitumor agents may lead to the development of drug resistance.
Every several weeks, cells were harvested for the dose-effect analysis to determine their folds of resistance (using SRB protein staining assay) based on comparing the IC50 value with the IC50 value of the untreated parent cells. Trypsinized/washed cells were used for propagating the cell lineage.

A further experiment concerns MCF-7/Adr. The experiment in a line: Tumor cell growth inhibition in vitro. The format is cell-based, human. The following applies: MCF-7/Adr vs MCF-7. As for the experimental part: The cells were cultured at an initial density of 2-5×10^4 cells per ml. […] For solid tumor cells growing in a monolayer (such as MCF-7/Adr), cytotoxicitiy of the drug was determined in 96-well microtiter plates by using the sulforhodamine B method as described by Skehan et al (23) for measuring the cellular protein content. For cells that were grown in suspension (such as CCRF-CEM and its sublines), cytotoxicitiy was measured by using the 2,-3-bis(2-methoxy-4-nitro-5-sulfophenyl)-5carboxanilide)-2H terazodium hydroxide (XTT)-microculture tetrazonium method (24) in duplicate in 96-well microtiter plates. For both methods, the absorbance of each well was measured with a microplate reader (EL-340, Bio-Tek, Burlington, Vt.). Each run entailed six or seven concentrations of the tested drugs. Dose-effect relationship data were analyzed with the median-effect plot (25) by using a previously described computer program (26).

The subject of experiment [2] is MX-1 mammary carcinoma xenograft. As to conditions: MX-1, i/p., ref 19 (FIG. 2).

Each structure is given as a SMILES string.

`COc1cccc2c1C(=O)c1c(O)c3c(c(O)c1C2=O)C[C@@](O)(C(=O)CO)C[C@@H]3O[C@H]1C[C@H](N)[C@H](O)[C@H](C)O1` [Adriamycin, doxorubicin, reference compound]: the “fold resistance developed to the drug after repeated exposure” value in experiment [1] is on record as 16.3 fold. Moreover, the “cross-resistance (fold of resistance vs parent cell line)” value with MCF-7/Adr came to 3.5 x. In addition, the “Therapeutic Effect Rank Order” value in experiment [2] was “dEpoB>Adriamycin>Taxol”.

Values taken from patent US6867305B2, “Synthesis of epothilones, intermediates thereto and analogues thereof” (Sloan-Kettering Institute for Cancer Research, priority 1996, dated 2005).
